Laboratory results from patent US6926913B2, “Composition containing molecular iodine” (dated 2005).

What was measured:
[1] = Solubility and stability of molecular iodine in solvents on water addition
[2] = unless iodide is present; cited from earlier work

Structure (SMILES): II
- stability of solution in TG in the presence of water ([1]; solvent TG): remains stable even in the presence of water
- behaviour of solution in ethanol after water addition ([1]; solvent ethanol): precipitates
- behaviour of 2% solution in PEG-400 in the presence of water ([1]; solvent polyethyleneglycol (PEG)-400): precipitates and dissolves again after overnight incubation at room temperature
- solubility in water [2]: practically water insoluble
